## Cyclic peptide permeability, from CycPeptMPDB

Values of Furukawa et al. 2016, doi:10.1021/acs.jmedchem.6b01246, as listed in CycPeptMPDB.

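Conditions beyond the assay type are not listed; see the original paper. Other peptides of the study may be missing here. Entries at the database's floor value (log10 P of -10) are not listed.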

PAMPA is the parallel artificial membrane permeability assay, which has no cells and reads passive diffusion. Values are log10 P with P in cm/s, so -5 is more permeable than -7.

compound,PAMPA (log10 cm/s)
CCCC[C@@H]1NC(=O)[C@H](CC(C)C)N(C)C(=O)CN(CCCc2ccccc2)C(=O)[C@H](Cc2ccc3ccccc3c2)NC(=O)CN(CCCCc2ccccc2)C(=O)[C@H]2CCCN2C1=O,-9.27
CCCC[C@@H]1NC(=O)[C@H](CC(C)C)N(C)C(=O)CN(CCCc2cnn(C)c2)C(=O)[C@H](C)NC(=O)CN(Cc2ccc(Cl)cc2)C(=O)[C@H]2CCCN2C1=O,-5.56
CCCCCN1CC(=O)N(C)[C@@H](CC(C)C)C(=O)N[C@@H](CCCC)C(=O)N2CCC[C@@H]2C(=O)N(CC(C)C)CC(=O)N[C@@H](Cc2ccccc2)C1=O,-5.97
CCCCCN1CC(=O)N(C)[C@@H](CC(C)C)C(=O)N[C@@H](CCCC)C(=O)N2CCC[C@@H]2C(=O)N(CCC)CC(=O)N[C@@H](C)C1=O,-5.05
CCCC[C@@H]1NC(=O)[C@H](CC(C)C)N(C)C(=O)CN(CCCc2ccccc2)C(=O)[C@H](Cc2ccc3ccccc3c2)NC(=O)CN(CC(C)C)C(=O)[C@H]2CCCN2C1=O,-8.95
CCCC[C@@H]1NC(=O)[C@H](CC(C)C)N(C)C(=O)CN(CCOc2ccccc2)C(=O)[C@H](CC(C)C)NC(=O)CN(Cc2cc(CC(C)C)on2)C(=O)[C@H]2CCCN2C1=O,-6.64
CCCC[C@@H]1NC(=O)[C@H](CC(C)C)N(C)C(=O)CN(CCOc2ccccc2)C(=O)[C@H](Cc2ccccc2)NC(=O)CN(CCCCc2ccccc2)C(=O)[C@H]2CCCN2C1=O,-8.56
CCCC[C@@H]1NC(=O)[C@H](CC(C)C)N(C)C(=O)CN(Cc2ccccc2)C(=O)[C@H](CC(C)C)NC(=O)CN(CCC)C(=O)[C@H]2CCCN2C1=O,-5.20
CCCC[C@@H]1NC(=O)[C@H](CC(C)C)N(C)C(=O)CN(CC2CCOCC2)C(=O)[C@H](Cc2ccc3ccccc3c2)NC(=O)CN(Cc2ccccc2Cn2cccn2)C(=O)[C@H]2CCCN2C1=O,-6.29
CCCC[C@@H]1NC(=O)[C@H](CC(C)C)N(C)C(=O)CN(CCCc2ccccc2)C(=O)[C@H](CC(C)C)NC(=O)CN(CC)C(=O)[C@H]2CCCN2C1=O,-5.11
CCCC[C@@H]1NC(=O)[C@H](CC(C)C)N(C)C(=O)CN(CC2CCCCC2)C(=O)[C@H](Cc2ccccc2)NC(=O)CN(CCC)C(=O)[C@H]2CCCN2C1=O,-6.23
CCCC[C@@H]1NC(=O)[C@H](CC(C)C)N(C)C(=O)CN(CCCN2CCCC2=O)C(=O)[C@H](CC(C)C)NC(=O)CN(CCCOC(C)C)C(=O)[C@H]2CCCN2C1=O,-6.47
CCCC[C@@H]1NC(=O)[C@H](CC(C)C)N(C)C(=O)CN(Cc2ccccc2)C(=O)[C@H](C)NC(=O)CN(CCCOC(C)C)C(=O)[C@H]2CCCN2C1=O,-4.97
CCCC[C@@H]1NC(=O)[C@H](CC(C)C)N(C)C(=O)CN(CCCc2cnn(C)c2)C(=O)[C@H](C)NC(=O)CN(CCCOC(C)C)C(=O)[C@H]2CCCN2C1=O,-6.67
CCCC[C@@H]1NC(=O)[C@H](CC(C)C)N(C)C(=O)CN(CCOc2ccccc2)C(=O)[C@H](CC(C)C)NC(=O)CN(CCCCc2ccccc2)C(=O)[C@H]2CCCN2C1=O,-7.39